Experimental data from article PMC9257522, “Machine Learning for Discovery of New ADORA Modulators” (Frontiers in Pharmacology, 2022).
Where a name gives a salt, the structure may show the parent alone.

Tested on: human A2BAR
Test: Radioligand displacement binding, [3H]DPCPX

Question: With `Fc1ccc([C@@H]2CCNC[C@H]2COc2ccc3c(c2)OCO3)cc1` [Paroxetine, Paroxetine Hydrochloride] as the compound, how does the “Inhibition of specific binding, % inhibition at 100 µM, A2B ([3H]DPCPX)” value read?
Answer: <10%
